Source: US9750742B2, “Small molecular inhibitors of RAD51 recombinase and methods thereof” (Drexel University, priority 2011, dated 2017)

Chains of the proteins cited; added tags and fusions are not shown.
UniProt P0A7G6, whole entry: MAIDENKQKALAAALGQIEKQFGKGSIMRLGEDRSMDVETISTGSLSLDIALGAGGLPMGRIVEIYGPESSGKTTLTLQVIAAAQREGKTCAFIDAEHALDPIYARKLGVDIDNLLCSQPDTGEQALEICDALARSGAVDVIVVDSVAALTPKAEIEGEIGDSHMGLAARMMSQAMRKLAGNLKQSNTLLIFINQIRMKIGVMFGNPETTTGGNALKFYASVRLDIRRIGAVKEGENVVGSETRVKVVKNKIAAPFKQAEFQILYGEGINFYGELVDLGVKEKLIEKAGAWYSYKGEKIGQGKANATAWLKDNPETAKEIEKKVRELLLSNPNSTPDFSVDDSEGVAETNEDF
UniProt Q06609, whole entry: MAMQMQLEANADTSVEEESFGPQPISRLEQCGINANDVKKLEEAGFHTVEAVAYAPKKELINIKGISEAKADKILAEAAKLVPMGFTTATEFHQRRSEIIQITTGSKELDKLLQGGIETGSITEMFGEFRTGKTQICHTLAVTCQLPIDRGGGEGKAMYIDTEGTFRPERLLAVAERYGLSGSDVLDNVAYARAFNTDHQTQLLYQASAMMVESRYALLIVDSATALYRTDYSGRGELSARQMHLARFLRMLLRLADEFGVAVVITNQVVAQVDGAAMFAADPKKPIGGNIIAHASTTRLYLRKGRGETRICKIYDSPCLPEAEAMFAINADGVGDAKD
UniProt Q92698, whole entry: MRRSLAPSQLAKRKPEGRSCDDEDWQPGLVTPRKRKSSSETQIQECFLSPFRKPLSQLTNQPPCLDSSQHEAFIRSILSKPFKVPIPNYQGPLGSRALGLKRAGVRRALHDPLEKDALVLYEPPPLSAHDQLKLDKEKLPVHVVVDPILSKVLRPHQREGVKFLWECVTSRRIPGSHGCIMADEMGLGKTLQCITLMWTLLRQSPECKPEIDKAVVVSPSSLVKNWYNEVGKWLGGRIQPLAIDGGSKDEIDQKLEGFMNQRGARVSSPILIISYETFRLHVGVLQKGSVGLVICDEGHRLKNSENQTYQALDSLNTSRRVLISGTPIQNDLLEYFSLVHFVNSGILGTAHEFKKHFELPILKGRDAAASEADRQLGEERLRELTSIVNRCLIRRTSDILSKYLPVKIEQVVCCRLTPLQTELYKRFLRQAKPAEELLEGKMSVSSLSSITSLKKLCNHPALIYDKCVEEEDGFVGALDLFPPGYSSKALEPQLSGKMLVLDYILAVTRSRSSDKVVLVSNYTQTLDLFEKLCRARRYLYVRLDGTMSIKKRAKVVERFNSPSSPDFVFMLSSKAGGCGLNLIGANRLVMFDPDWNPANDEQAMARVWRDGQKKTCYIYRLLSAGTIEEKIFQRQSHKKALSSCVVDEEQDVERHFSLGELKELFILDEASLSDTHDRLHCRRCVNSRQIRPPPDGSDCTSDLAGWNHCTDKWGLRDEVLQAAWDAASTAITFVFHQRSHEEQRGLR

What was measured:
RecA = RecA (Escherichia coli, UniProt P0A7G6); conditions: read-out: IC50 (RecA); RecA 1 μM, ssDNA 3 μM, dsDNA 50 μM
RAD51 = RAD51 (Homo sapiens, UniProt Q06609); assay: D-loop assay for RAD51; type: biochemical; conditions: for Joint Molecules (%): compounds 100 μM
RAD54 = RAD54 (Homo sapiens, UniProt Q92698); assay: DNA branch migration assay for RAD54; conditions: 0 to 200 μM

SMILES | IC50 (RecA) [µM] | IC50 lower for RAD51 than for RecA (RAD51; D-loop assay) [fold] | Joint Molecules (%) (RAD51; RAD51 1 μM) | IC50 (RecA)/IC50 (RAD51) (RAD51; D-loop assay) | inhibition of RAD51 versus RecA, in words (RAD51; D-loop assay) | IC50 (RAD51; read-out: IC50 (RAD51), RAD51 1 μM, ssDNA 3 μM, dsDNA 50 μM, compound added after filament formation) [µM] | inhibition of RAD54 branch migration, in words (RAD54)
Cc1cc(O)c(C=O)c2c1C(=O)Oc1c(CO)c(O)c3c(c1O2)C(O)OC3=O (stereo not drawn) | 187 | 5.6 | 5.4 ± 1.9 |  |  |  | 
COc1cc(C)c2c(c1C=O)Oc1c(c(C)c(O)c3c1C(O)OC3=O)OC2=O (stereo not drawn) | 35.3 |  | 6.7 ± 2.5 | 1.3 | nearly equal efficiency | 26.6 | not to significantly inhibit
